US10258614B2, “Compositions and methods for treating schizophrenia” (priority 2014, dated 2019)

The chains behind the UniProt entries cited, without tags or fusion partners. Where a name states a change or a piece, a line headed by the entry shows the natural chain unless it says otherwise.
UniProt Q12809: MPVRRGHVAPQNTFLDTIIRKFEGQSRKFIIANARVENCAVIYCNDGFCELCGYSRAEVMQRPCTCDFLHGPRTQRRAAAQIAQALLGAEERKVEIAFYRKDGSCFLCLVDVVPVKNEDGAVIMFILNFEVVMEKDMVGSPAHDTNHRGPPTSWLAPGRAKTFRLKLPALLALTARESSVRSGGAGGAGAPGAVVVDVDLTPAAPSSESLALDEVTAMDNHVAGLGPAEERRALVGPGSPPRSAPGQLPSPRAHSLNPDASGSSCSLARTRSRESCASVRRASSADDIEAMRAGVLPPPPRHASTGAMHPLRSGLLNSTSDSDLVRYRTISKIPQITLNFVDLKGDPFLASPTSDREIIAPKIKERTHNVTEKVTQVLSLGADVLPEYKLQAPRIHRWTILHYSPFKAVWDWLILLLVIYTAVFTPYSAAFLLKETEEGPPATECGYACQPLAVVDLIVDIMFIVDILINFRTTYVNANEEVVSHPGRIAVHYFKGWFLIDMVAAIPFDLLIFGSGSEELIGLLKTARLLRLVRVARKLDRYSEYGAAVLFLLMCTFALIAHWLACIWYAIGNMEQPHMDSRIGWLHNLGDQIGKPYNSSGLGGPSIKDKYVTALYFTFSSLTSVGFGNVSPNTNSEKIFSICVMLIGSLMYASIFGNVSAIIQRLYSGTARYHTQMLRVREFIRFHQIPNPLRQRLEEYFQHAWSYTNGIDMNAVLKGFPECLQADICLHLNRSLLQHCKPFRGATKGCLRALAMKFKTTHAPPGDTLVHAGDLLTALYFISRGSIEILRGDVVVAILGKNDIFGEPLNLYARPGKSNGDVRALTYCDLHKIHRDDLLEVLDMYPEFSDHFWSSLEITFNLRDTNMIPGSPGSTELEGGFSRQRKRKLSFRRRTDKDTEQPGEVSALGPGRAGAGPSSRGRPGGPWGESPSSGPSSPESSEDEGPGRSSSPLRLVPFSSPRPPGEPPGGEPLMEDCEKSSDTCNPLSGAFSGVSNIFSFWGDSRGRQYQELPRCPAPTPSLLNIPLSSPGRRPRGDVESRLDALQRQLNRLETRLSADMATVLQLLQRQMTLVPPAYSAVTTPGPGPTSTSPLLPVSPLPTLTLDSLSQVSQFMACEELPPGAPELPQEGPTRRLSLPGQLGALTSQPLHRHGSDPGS

Target: IKr current (Homo sapiens, UniProt Q12809)
Assay: In vitro electrophysiology, cultured cells expressing cloned cardiac ion channels
Description: The effects of Compound (I) on the cardiovascular system were examined in in vitro and in vivo studies.

**Q.** For `O=C1Cc2cc(CCN3CCN(c4nsc5ccccc45)CC3)c(Cl)cc2N1` [ziprasidone, reference compound], which IC50 is on record?
**A.** 134 nM
